These are literature values, as cited in US4629793A, “2,3-di-substituted-5,6-dihydroimidazo [2,1-b] thiazole, its salts, production thereof and anti-inflammatory agent containing the same” (Toyo Jozo Kabushiki Kaisha, priority 1981, dated 1986).

This data set relates to bovine serum albumin. Conditions: known agents, stated "in general"; cited from earlier work.

Molecules are shown by their SMILES.

Regarding `O=P1(N(CCCl)CCCl)NCCCO1` (stereo not shown) [cyclophosphamide], the “effect on heat denaturation of bovine serum albumin” value is recorded as “do not inhibit the heat denaturation of bovine serum albumin but rather stimulate the protein heat denaturation”.
